The text below walks through data of patent US20090192097A1, “Synergistic Herbal Composition from Bacopa Species for Management of Neurodegenerative Disorders and a Process of Preparation Thereof” (priority 2006, published 2009).

The chains behind the UniProt entries cited, without tags or fusion partners.
UniProt P50406, whole entry: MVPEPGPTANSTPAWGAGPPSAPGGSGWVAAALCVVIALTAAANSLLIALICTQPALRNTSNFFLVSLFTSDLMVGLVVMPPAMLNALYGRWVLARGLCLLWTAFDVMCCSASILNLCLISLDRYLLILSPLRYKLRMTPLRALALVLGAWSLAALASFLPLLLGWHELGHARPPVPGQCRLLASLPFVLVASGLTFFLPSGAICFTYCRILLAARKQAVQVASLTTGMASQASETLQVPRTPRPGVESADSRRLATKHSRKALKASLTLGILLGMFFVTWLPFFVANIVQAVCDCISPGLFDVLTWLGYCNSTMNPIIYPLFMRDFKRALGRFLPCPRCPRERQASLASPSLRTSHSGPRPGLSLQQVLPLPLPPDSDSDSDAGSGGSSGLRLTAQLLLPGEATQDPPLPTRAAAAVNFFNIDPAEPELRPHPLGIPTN

For the assay, the target named is T1, 5-HT6 receptor (Homo sapiens, UniProt P50406).
T1 construct: expressed in transfected cells; host or cells: HEK 293
The experiment in a line: 5-HT6 receptor binding assay (3H-LSD, filtration format). The settings on record: 100 nM; positive control.

In turn, `CSc1ccc2c(c1)C(N1CCN(C)CC1)Cc1ccccc1S2` (stereo not shown) [Methiothepin] registered an Average % inhibition of 84.53%.
